“And” between values parts separate entries of the source, which are not always exact repeats. Equal values may be shown once.
Target: CREB-CRTC2 interaction (Homo sapiens, UniProt P16220)
Experiment: CREB–CRTC2 mammalian two-hybrid assay (GAL4-Luc reporter)
Type: cell-based
Settings: Figure 1f, DMSO control about 100

By UniProt entry, the sequences of proteins in these tests, tags left out. Where a name states a change or a piece, a line headed by the entry shows the natural chain unless it says otherwise.
UniProt P16220: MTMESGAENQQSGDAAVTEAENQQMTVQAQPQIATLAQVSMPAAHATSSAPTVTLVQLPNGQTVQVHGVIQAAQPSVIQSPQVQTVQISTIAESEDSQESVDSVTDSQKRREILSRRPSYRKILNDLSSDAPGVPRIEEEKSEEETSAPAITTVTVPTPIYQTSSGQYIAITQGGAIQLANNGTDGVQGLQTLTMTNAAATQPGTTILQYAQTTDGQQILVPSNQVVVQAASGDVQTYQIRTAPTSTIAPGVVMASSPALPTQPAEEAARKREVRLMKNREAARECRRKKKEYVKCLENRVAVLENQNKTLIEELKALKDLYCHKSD

baccharin was tested, and the “Relative Gal4-LUC activity, single replicates” value was 57.9128 and 74.6069 and 107.584.
